Reference: patent publication US20060166907A1, “Composition for the treatment of nasopharyngeal carcinoma and method of use thereof” (priority 2002, published 2006)

Tests used:
C666-1 cells = experiment: WST-1 cell viability assay, C666-1 cells; conditions: 72 h
Experimental: Cell viability assays were performed in 96 well plastic microplates, either uncoated (C666-1) or coated with Poly HEMA (C15). For each cell line, the number of cells distributed per well was optimized in order to achieve the highest metabolic activity while keeping exponential growth till the end of the test. C15 and C666-1 cells were seeded at 10^5 and 35×10^3/well, respectively, in 150 μl culture medium. Following an overnight pre-incubation culture, serial dilutions of chemotherapy drugs (50 μl; final concentration 50 nM-50 μM) were added in quadruplicate to a […]. At the completion of a 72 h incubation with tested pharmacological agents, cell viability was evaluated using the WST-1 assay (Roche Molecular, France). The WST-1 assay is based on the cleavage of the tetrazolium salt by mitochondrial dehydrogenases. […] Cells were incubated with 10 μl of the WST-1 reagent added to the culture medium, for 3 to 6 h, at 37° C. The plates were subsequently read on an ELISA reader (Dynatech MR7000, Guernsey channel Island, USA) using a 490 nm filter. The mean and standard deviation were determined for quadruplicate samples. […]
(Ali, H. et al., Chemotherapy in advanced nasopharyngeal cancer. Oncology (Huntingt), 14:1223-1230, 2000.) Their short term cytotoxic effect was assessed in vitro on the C15 and C666-1 cells, using a cell viability assay based on WST reduction. […]

bleomycin was tested, and the “sensitivity to short term cytotoxic effect” value (C666-1 cells) was “No significant effects”, the “sensitivity to short term cytotoxic effect” value (C15 cells; C15 cells, 72 h, WST-1) was “No significant effects” and the “enhancement of cytotoxicity by combination with Compound A” value (C15 cells; NPC cells, cell line not specified, test concentrations) was “not observed”.
